EP2710378B1, “METHOD TO PROGNOSE VIRAL INFECTION BY MEASURING T CELL RESPONSE OR AUTO-ANTIBODIES TO APOPTOTIC EPITOPES” (Università degli Studi di Roma "La Sapienza", priority 2011, dated 2012)

Test system: HLA-A2
Format: binding, Human
Settings: not given

First: CC[C@H](C)[C@H](N)C(=O)N[C@@H](CC(C)C)C(=O)N[C@@H](Cc1c[nH]cn1)C(=O)N[C@H](C(=O)N[C@@H](CC(=O)O)C(=O)N[C@@H](CC(N)=O)C(=O)N[C@@H](Cc1c[nH]cn1)C(=O)N[C@H](C(=O)NCC(=O)N[C@H](C(=O)O)[C@@H](C)CC)[C@@H](C)CC)C(C)C [compound 235]
Second: CC[C@H](C)[C@H](NC(=O)[C@@H](NC(=O)[C@@H](NC(=O)[C@@H](NC(=O)[C@H](CCC(N)=O)NC(=O)CNC(=O)[C@H](CC(=O)O)NC(=O)[C@@H]1CCCN1C(=O)[C@H](CC(C)C)NC(=O)[C@@H](N)CCC(=O)O)C(C)C)[C@@H](C)CC)[C@@H](C)O)C(=O)O [compound 10]
The Alleles bound of the first is lower: 0 for the first, 2 for the second.

`CC[C@H](C)[C@H](NC(=O)[C@H](CCC(N)=O)NC(=O)[C@H](CC(=O)O)NC(=O)[C@H](CCCCN)NC(=O)[C@H](CC(C)C)NC(=O)[C@H](CC(=O)O)NC(=O)[C@H](CCC(=O)O)NC(=O)[C@H](CC(C)C)NC(=O)[C@@H](N)CC(=O)O)C(=O)O` [compound 52] and `CC[C@H](C)[C@H](NC(=O)[C@@H](NC(=O)[C@@H](NC(=O)[C@H](CCC(N)=O)NC(=O)[C@@H](NC(=O)[C@H](CC(N)=O)NC(=O)[C@H](CCC(=O)O)NC(=O)[C@H](CCCNC(=N)N)NC(=O)[C@H](CC(C)C)NC(=O)[C@@H](N)CCC(=O)O)[C@@H](C)O)[C@@H](C)O)[C@@H](C)O)C(=O)O` [compound 25] are the same in Alleles bound: 0 for the first, 0 for the second.

Same assay, conditions: Table 8, peptides derived from fragmented proteins; number of the five HLA-A2 alleles bound

In the case of `CC(C)C[C@H](NC(=O)[C@H](CO)NC(=O)[C@H](Cc1ccccc1)NC(=O)[C@H](CC(=O)O)NC(=O)[C@@H](NC(=O)[C@H](CO)NC(=O)[C@H](CC(=O)O)NC(=O)[C@H](CCC(N)=O)NC(=O)[C@H](CC(C)C)NC(=O)[C@@H](N)CC(C)C)C(C)C)C(=O)O` [compound 204], the Alleles bound is reported as 4.

Same assay, conditions: Table 9, peptides derived from not fragmented proteins; number of the five HLA-A2 alleles bound

Compared with `CC[C@H](C)[C@H](NC(=O)[C@H](CO)NC(=O)[C@@H](NC(=O)[C@H](CC(N)=O)NC(=O)[C@H](CCCCN)NC(=O)[C@@H](NC(=O)[C@@H](NC(=O)[C@H](CC(C)C)NC(=O)[C@@H](N)CC(=O)O)[C@@H](C)O)[C@@H](C)O)C(C)C)C(=O)O` [compound 242], `CC[C@H](C)[C@H](NC(=O)[C@H](CCC(N)=O)NC(=O)[C@@H](NC(=O)[C@H](CCCCN)NC(=O)[C@H](CO)NC(=O)CNC(=O)[C@@H](NC(=O)[C@H](CC(C)C)NC(=O)[C@@H](N)CO)[C@@H](C)CC)[C@@H](C)O)C(=O)O` [compound 237] is lower in Alleles bound: 3 for the first, 0 for the second.

First: CSCC[C@H](NC(=O)[C@@H](N)Cc1ccccc1)C(=O)N[C@@H](CCC(=O)O)C(=O)N[C@@H](CS)C(=O)N[C@@H](CC(N)=O)C(=O)N[C@@H](CC(C)C)C(=O)N[C@@H](CC(N)=O)C(=O)N[C@@H](CCC(=O)O)C(=O)N[C@@H](CC(C)C)C(=O)N[C@H](C(=O)O)C(C)C [compound 238]
Second: CC[C@H](C)[C@H](NC(=O)[C@H](CC(N)=O)NC(=O)[C@H](CCCCN)NC(=O)CNC(=O)[C@H](CC(N)=O)NC(=O)[C@H](CC(C)C)NC(=O)[C@@H](N)CCC(=O)O)C(=O)N[C@@H](CCC(=O)O)C(=O)N[C@@H](CC(=O)O)C(=O)N[C@H](C(=O)O)C(C)C [compound 243]
The Alleles bound of the first is lower: 2 for the first, 3 for the second.

With `CC(C)C[C@H](NC(=O)[C@H](CC(C)C)NC(=O)[C@H](Cc1ccc(O)cc1)NC(=O)[C@H](CO)NC(=O)[C@H](C)NC(=O)[C@@H](NC(=O)[C@@H](N)Cc1ccc(O)cc1)C(C)C)C(=O)N[C@@H](C)C(=O)N[C@@H](C)C(=O)O` [compound 250] the Alleles bound was 0.

Same assay, conditions: Table 11, peptides derived from apoptotic cell-associated proteins, pools 1-4; number of the five HLA-A2 alleles bound

`CC[C@H](C)[C@H](NC(=O)[C@H](Cc1ccccc1)NC(=O)[C@H](CCSC)NC(=O)[C@@H](NC(=O)[C@H](Cc1c[nH]cn1)NC(=O)[C@H](CC(N)=O)NC(=O)[C@H](Cc1ccccc1)NC(=O)[C@H](CC(C)C)NC(=O)[C@@H](N)CCC(N)=O)[C@@H](C)O)C(=O)O` and `CC[C@H](C)[C@H](NC(=O)[C@H](CCCCN)NC(=O)[C@H](CCSC)NC(=O)[C@@H](NC(=O)[C@H](CO)NC(=O)[C@@H]1CCCN1C(=O)[C@H](C)NC(=O)[C@H](CC(C)C)NC(=O)[C@H](C)N)[C@@H](C)O)C(=O)O` are the same in Alleles bound: 5 for the first, 5 for the second.

Same assay, conditions: Table 12, peptides derived from apoptotic cell-associated proteins, pools 5-6; number of the five HLA-A2 alleles bound

`CC[C@H](C)[C@H](NC(=O)[C@H](CO)NC(=O)[C@H](CCC(N)=O)NC(=O)[C@H](CC(=O)O)NC(=O)[C@H](CCC(=O)O)NC(=O)[C@H](CCCNC(=N)N)NC(=O)[C@H](CC(=O)O)NC(=O)[C@H](CCC(N)=O)NC(=O)[C@H](CCSC)NC(=O)[C@@H](N)CCSC)C(=O)O` showed an Alleles bound of 2.

Same assay, conditions: number of the five alleles A*0201, A*0202, A*0203, A*0206, A*6802 bound

First: CC(C)C[C@H](NC(=O)[C@H](CCCNC(=N)N)NC(=O)[C@H](CCC(=O)O)NC(=O)[C@H](CCC(=O)O)NC(=O)[C@H](CCC(=O)O)NC(=O)CNC(=O)[C@H](CCC(=O)O)NC(=O)[C@H](CC(C)C)NC(=O)[C@@H](N)CC(C)C)C(=O)O [compound 47]
Second: CC(C)C[C@H](NC(=O)[C@H](CCCNC(=N)N)NC(=O)[C@H](CCC(=O)O)NC(=O)[C@H](CCC(=O)O)NC(=O)[C@H](CCC(=O)O)NC(=O)CNC(=O)[C@H](CCC(=O)O)NC(=O)[C@H](CC(C)C)NC(=O)[C@H](CC(C)C)NC(=O)[C@@H](N)CCCCN)C(=O)O [compound 40]
The Alleles bound of the first is lower: 1 for the first, 2 for the second.

Compared with `CC[C@H](C)[C@H](NC(=O)[C@H](CCSC)NC(=O)[C@H](CCC(=O)O)NC(=O)[C@H](C)NC(=O)[C@H](CCC(=O)O)NC(=O)[C@H](CCSC)NC(=O)[C@@H](N)CO)C(=O)N[C@@H](CCC(N)=O)C(=O)N[C@@H](CC(C)C)C(=O)O` [compound 119], `CC[C@H](C)[C@H](NC(=O)[C@@H](NC(=O)[C@H](CCCCN)NC(=O)[C@H](CCC(=O)O)NC(=O)[C@H](CCC(=O)O)NC(=O)[C@H](C)NC(=O)[C@H](CC(C)C)NC(=O)[C@H](CC(C)C)NC(=O)[C@@H](N)CCC(N)=O)[C@@H](C)O)C(=O)O` [compound 171] is lower in Alleles bound: 2 for the first, 0 for the second.

Going from `CC(C)C[C@H](NC(=O)[C@H](CCC(N)=O)NC(=O)[C@H](CCCCN)NC(=O)[C@H](CCCCN)NC(=O)[C@H](C)NC(=O)[C@H](C)NC(=O)[C@H](C)NC(=O)[C@H](CC(C)C)NC(=O)[C@@H](N)CO)C(=O)O` [compound 46] to `CC(C)C[C@H](NC(=O)[C@H](CCC(=O)O)NC(=O)CNC(=O)[C@H](CCCNC(=N)N)NC(=O)[C@H](CCC(=O)O)NC(=O)[C@H](CC(N)=O)NC(=O)[C@H](CCC(=O)O)NC(=O)[C@H](CC(C)C)NC(=O)[C@@H](N)[C@@H](C)O)C(=O)O` [compound 170], the Alleles bound falls from 1 to 0.

First: CC(C)C[C@H](NC(=O)[C@@H](N)CC(C)C)C(=O)N[C@@H](Cc1c[nH]cn1)C(=O)N[C@@H](CCC(N)=O)C(=O)N[C@@H](CO)C(=O)N[C@@H](CO)C(=O)N[C@@H](CC(=O)O)C(=O)N[C@@H](CCCCN)C(=O)N[C@@H](Cc1ccccc1)C(=O)N[C@H](C(=O)O)C(C)C [compound 125]
Second: CSCC[C@H](NC(=O)[C@@H](N)CCC(=O)O)C(=O)N[C@@H](CCCNC(=N)N)C(=O)N[C@@H](CCC(N)=O)C(=O)N[C@@H](CCCCN)C(=O)N[C@@H](Cc1c[nH]cn1)C(=O)N[C@@H](CO)C(=O)N[C@@H](CCC(N)=O)C(=O)N[C@@H](C)C(=O)N[C@H](C(=O)O)C(C)C [compound 184]
The Alleles bound of the first is higher: 2 for the first, 0 for the second.

Compared with `CC[C@H](C)[C@H](NC(=O)[C@H](CCCCN)NC(=O)[C@H](CCSC)NC(=O)[C@@H](NC(=O)[C@H](CO)NC(=O)[C@@H]1CCCN1C(=O)[C@H](C)NC(=O)[C@H](CC(C)C)NC(=O)[C@H](C)N)[C@@H](C)O)C(=O)O` [compound 2], `CC[C@H](C)[C@H](NC(=O)[C@H](CC(C)C)NC(=O)[C@@H](N)C(C)C)C(=O)NCC(=O)NCC(=O)N[C@@H](CCCCN)C(=O)N1CCC[C@H]1C(=O)N[C@@H](CC(=O)O)C(=O)N[C@@H](CCCNC(=N)N)C(=O)N[C@H](C(=O)O)C(C)C` [compound 18] is lower in Alleles bound: 5 for the first, 3 for the second.

`CC[C@H](C)[C@H](NC(=O)[C@H](CCC(=O)O)NC(=O)[C@H](CCC(=O)O)NC(=O)[C@H](CO)NC(=O)[C@H](Cc1ccc(O)cc1)NC(=O)[C@@H](NC(=O)[C@@H]1CCCN1C(=O)[C@H](CC(C)C)NC(=O)[C@@H](N)CC(N)=O)[C@@H](C)CC)C(=O)N[C@H](C(=O)O)C(C)C` [compound 177] was tested, and the Alleles bound was 0.

Same assay, conditions: number of the five alleles A*0201, A*0202, A*0203, A*0206, A*6802 bound; Table 13

`CC(C)C[C@H](NC(=O)CNC(=O)[C@H](Cc1c[nH]cn1)NC(=O)[C@H](CCCCN)NC(=O)[C@@H](NC(=O)[C@H](CC(C)C)NC(=O)[C@H](CCC(=O)O)NC(=O)[C@H](CC(N)=O)NC(=O)[C@H](CC(C)C)NC(=O)[C@@H](N)CC(N)=O)C(C)C)C(=O)O` and `CC(C)C[C@H](NC(=O)[C@H](C)NC(=O)[C@H](CCCNC(=N)N)NC(=O)[C@H](CC(C)C)NC(=O)CNC(=O)[C@H](Cc1c[nH]cn1)NC(=O)[C@H](CCCCN)NC(=O)[C@@H](NC(=O)[C@H](CC(C)C)NC(=O)[C@@H](N)CCC(=O)O)C(C)C)C(=O)O` [ELVKHGLRAL] are the same in Alleles bound: 3 for the first, 3 for the second.

Going from `CC(C)C[C@H](NC(=O)[C@@H](NC(=O)[C@H](CCC(=O)O)NC(=O)[C@H](CCCNC(=N)N)NC(=O)[C@H](CC(C)C)NC(=O)[C@H](C)NC(=O)[C@H](CCCNC(=N)N)NC(=O)[C@H](CC(C)C)NC(=O)CN)[C@@H](C)O)C(=O)O` to `CC(C)C[C@H](NC(=O)[C@H](CC(C)C)NC(=O)[C@H](CCCNC(=N)N)NC(=O)[C@H](C)NC(=O)[C@H](CC(=O)O)NC(=O)[C@H](C)NC(=O)[C@@H](NC(=O)[C@H](CC(C)C)NC(=O)CN)[C@@H](C)O)C(=O)O`, the Alleles bound rises from 2 to 5.

`CC(C)C[C@H](NC(=O)CN)C(=O)N[C@@H](CCCCN)C(=O)N[C@@H](CO)C(=O)N[C@@H](CCCCN)C(=O)N[C@H](C(=O)N[C@@H](Cc1c[nH]cn1)C(=O)N[C@@H](C)C(=O)N[C@H](C(=O)O)C(C)C)[C@@H](C)O` and `CC[C@H](C)[C@H](NC(=O)[C@H](CCC(N)=O)NC(=O)[C@@H](NC(=O)[C@H](CCCCN)NC(=O)[C@H](CO)NC(=O)CNC(=O)[C@@H](NC(=O)[C@H](CC(C)C)NC(=O)[C@@H](N)CO)[C@@H](C)CC)[C@@H](C)O)C(=O)O` are the same in Alleles bound: 0 for the first, 0 for the second.
